Amino acid sequences for entries named in this document (tags omitted).
ATP-dependent Clp protease proteolytic subunit (Bacillus subtilis (strain 168)), P80244, UniProt P80244, whole entry, looked up: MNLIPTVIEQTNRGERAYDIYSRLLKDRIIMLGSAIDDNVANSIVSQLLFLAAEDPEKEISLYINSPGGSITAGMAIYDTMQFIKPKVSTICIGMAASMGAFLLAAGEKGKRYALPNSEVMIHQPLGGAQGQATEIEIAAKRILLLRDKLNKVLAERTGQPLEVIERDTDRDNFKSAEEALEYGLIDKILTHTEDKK

# Rows were chosen to be rich in hits. Some 3.7% of all compounds tested hit in one or more screens of this group.
# ClpP mod: qHTS Assay for Activators of ClpP. purified B. subtilis ClpP, FRET peptide cleavage, 20 min. Potency, µM (titrated, usually from 57.5 µM). 340,000 compounds, 1.9% hits. ATP-dependent Clp protease proteolytic subunit (Bacillus subtilis (strain 168)), P80244; active means well fitted falling curve with a large enough effect; inconclusive means small, poorly fitted or top-dose-only effect; inactive means no such curve, though single readings can be large or run the other way; further: the source files actives as falling curves though it sought activators and does not explain the sign; nearly all actives have a fitted effect of over 65% in size
#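 FRET quenching reversal measured ClpP activation: 10 microg/mL B. subtilis ClpP at pH 8 with the FRET-FV decapeptide, read at 430 nm after 320 nm excitation. The 20-min minus 0-min signal was scaled between DMSO/no-enzyme wells and ADEP (5.8 microM final).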
# A549 viability: counter-screen for Nrf2 inhibitors: cytotoxicity in A549 cells; Potency, µM (top dose mostly 46 µM), most hits filed as inhibitors; A549 ARE-Fluc cells, CellTiter-Fluor viability, 18-24 h; 390,000 compounds, 0.16% hits
#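 Cytotoxicity counterscreen: CellTiter-Fluor fluorescence was measured in A549 ARE_Fluc cells after 18-24 h of compound exposure in a concentration series. The subsequent BugLite luminescent read reports ARE-luciferase activity.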
# Nrf2 block: inhibitors of Nrf2 signaling. AID 504444. Potency, µM (top dose mostly 46 µM), hits mostly inhibitors. A549 ARE-Fluc reporter, luciferase luminescence, 18-24 h. 360,000 compounds, 2.1% hits; further: nearly all actives have a fitted effect of over 60% in size
#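 Quantitative HTS in A549 cells stably bearing an antioxidant response element-firefly luciferase construct. Inhibition of Nrf2-driven transcription was scored by luminescence after 18-24 h of compound exposure at 37 °C.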
# Nrf2 activator: Nrf2 pathway activation. AREc32 ARE-luciferase reporter (MCF7-derived line), luminescence, 24 h. Potency, µM (doses to about 46.1 µM), usual class: activators. 410,000 compounds, 0.31% hits. AID 624171; further: nearly all actives have a fitted effect of over 65% in size
#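 Luminescent ARE reporter assay in AREc32_Fluc cells: overnight plating at 37 deg C, 24 hr compound incubation, Steady-Glo added, 30 min RT before reading.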
# miR-21 FLuc: miR-21 reporter, rising signal | AID 2288 | HeLa miR-21 FLuc reporter, luciferase, 48 h | 340,000 tested, under 10 active | Potency, µM (titrated, usually from 38.3 µM); active = well fitted rising curve with a large enough effect; inconclusive = small, poorly fitted or top-dose-only effect; inactive = no such curve, though single readings can be large or run the other way;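 also: miR-21 action dims this reporter so a rising signal means less miR-21 action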
#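 Compounds were titrated across several concentrations (up to approximately 40 uM) and incubated 48 hours with HeLa miR-21-FLuc reporter cells (miR-21 target sequence downstream of FLuc, endogenous miR-21). Readout was firefly luciferase luminescence after lytic detection reagent.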
# IL2 activator: IL-2 activation | AID 652025 | IL-2 activation reporter assay, cell-based qHTS; stimulated with anti-CD3/CD4/CD28 beads; in transgenic mouse T cells | activation, % (series mostly up to about 46 µM) | 360,000 compounds, 0.065% hits; in the data active means activation above about 50%; inconclusive means mostly about 30% to 49%
#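 Readout: EGFP and DsRed signals by fluorescent plate cytometry. Unstimulated transgenic mouse T cells received compound 60 min before antibody-bead stimulation, then incubated 18 h at 37 degrees C.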
# Hits are given with their value; . = inactive; ? = inconclusive; / = not tested or not shown; [ ] = remark or other dose. Unless noted, the call rests on the fitted dose curve; in most records, active means well fitted curve in the direction sought with a large enough effect; inconclusive means small, poorly fitted or top-dose-only effect, or another doubt; inactive means no such curve, though single readings can be large; an effect the other way counts as inactive or inconclusive.
SMILES,ClpP mod,A549 viability,Nrf2 block,Nrf2 activator,miR-21 FLuc,IL2 activator
COc1cc(Br)c(C2CC(=O)Nc3cc4c(cc32)OCCO4)cc1OC (stereo not drawn),.,.,.,.,.,/
CCOC(=O)N/N=C1\CCc2ccccc21,32µM,.,?,.,.,.
Cc1ccsc1CNC1C2CC3CC(C2)CC1C3 (stereo not drawn),22µM,.,.,.,.,.
COc1ccc(C2=C(C)C(N3CCC(C(=O)Nc4ccccc4F)CC3)=NS2(=O)=O)cc1,.,.,.,.,.,/
Cc1[nH]c2ccccc2c1C(c1c(C)[nH]c2ccccc12)c1c(C)[nH]c2ccccc12,.,/,/,/,/,/
Cc1cc2[nH]c3ccccc3c2c(C)n1,28µM,?,?,.,.,.
CC(C)n1c(=O)c2oc3ccccc3c2n(CC(=O)Nc2ccccc2Cl)c1=O,.,.,?,.,.,/
Cc1cc(C)c(C)c(S(=O)(=O)N2CCC(C(=O)NNC(=O)c3ccccc3O)CC2)c1C,28µM,?,?,.,/,.
Cc1ccc(S(=O)(=O)N2CCC(C(=O)NNC(=O)c3ccccc3O)CC2)cc1C,?,.,.,.,/,.
COc1ccc(-c2cc(NCCc3ccncc3)n3ncnc3n2)cc1,32µM,.,.,.,.,.
COC(=O)c1oc2nc(C)cc(C)c2c1N,28µM,.,.,.,.,.
Cc1cc(C)c2c(N)c(C(=O)c3ccc(Br)cc3)oc2n1,/,.,.,1.8µM,.,.
Cc1ccccc1NC(=O)C(=O)NCC1(c2ccccc2)CCCC1,.,.,.,.,.,/
Cc1ccc(C)c(N2C(=O)N(C)c3ccccc3S2(=O)=O)c1,.,.,/,.,.,/
c1ccc(Cn2c(SCc3cn4cccnc4n3)nnc2-c2ccco2)cc1,16µM,.,.,.,.,.
Cc1ccc(CNC(=O)c2ccc3c(c2)N(Cc2ccccc2Cl)C(=O)CS3)cc1,.,.,.[9.27 µM],.,.,/
C[n+]1ccc(/C=C/c2ccc(Br)cc2)cc1,?,?,7.3µM,.,.,.
CCCn1c(/C=C/c2cc[n+](C)cc2)nc2ccccc21,/,?,.,.[9.22 µM],.,.
COC(=O)c1ccccc1NC(=O)N1CCC(N2CCN(Cc3ccc(F)cc3)C(=O)C2=O)CC1,.,.,/,.,.,/
COc1ccc(Cn2c(CCC(=O)Nc3ccc(OC)c(Cl)c3)nc3cccnc32)cc1,.,.,.,.,.,/
COc1ccccc1Nc1nn2c(=O)c3ccc(C(=O)NCc4cccs4)cc3nc2s1,.,7.3µM,/,.,?,/
COc1ccccc1Nc1nn2c(=O)c3ccc(C(=O)NCCCOC(C)C)cc3nc2s1,.,.,.,.,.,/
CCN(CC)CCNC(=O)c1ccc2c(=O)n3nc(Nc4ccccc4OC)sc3nc2c1,.,15µM,?,.,.,/
Nc1ccc(S(=O)(=O)N2CCCN(S(=O)(=O)c3ccc4c(c3)OCCO4)CC2)cc1,/,.,.,/,/,/
CC(=O)Nc1cc(OC(C)=O)c2nonc2c1OC(C)=O,.,?,15µM,.,?,.
SMILES,ClpP mod,A549 viability,Nrf2 block,Nrf2 activator,miR-21 FLuc,IL2 activator
Cc1cc2c(cc(C(=O)OC(C(=O)NC3CCCCC3)C(C)C)n2C)o1 (stereo not drawn),.,.,21µM,.,/,.
O=c1n(Cc2ccc(F)cc2)c2ccccc2c2nc(-c3ccccc3)nn12,.,.,.,.,.,/
COc1ccc(Cl)cc1NC(=O)c1sc2nc(C)nc(N3CCOCC3)c2c1C,.,.,21µM,.,.,.
Cc1nc(N2CCN(c3ccccn3)CC2)c2c(C)c(C(=O)Nc3ccccc3F)sc2n1,/,.,16µM,.,.,.
Cc1nc(N2CCOCC2)c2c(C)c(C(=O)Nc3ccccc3Cl)sc2n1,/,.,.,.,.,.
Cc1nc(N2CCC(C)CC2)c2c(C)c(C(=O)Nc3ccc(C(F)(F)F)cc3)sc2n1,/,?,21µM,.,.,.
COc1ccc(NC(=O)c2sc3ncnc(N4CCN(c5ccccn5)CC4)c3c2C)cc1Cl,.,?,15µM,.,.,.
Cc1nc(N2CCN(c3ccccn3)CC2)c2c(C)c(C(=O)Nc3ccc(F)cc3F)sc2n1,/,.,?,.,.,.
CCc1ccccc1NC(=O)CN1C(=O)COc2ccc(S(=O)(=O)Nc3ccccc3)cc21,.,.,.,.,.,/
COc1ccc(Cn2c(CNS(=O)(=O)c3ccc(Cl)s3)nc3cccnc32)cc1,.,.,/,.,.,/
Cc1ccc(C)c(NC(=O)CN2C(=O)C3(SCC(=O)N3c3ccc(C)c(C)c3)c3ccccc32)c1 (stereo not drawn),.,.,.,.,.,/
CCN(CCCN(C)C)c1ccc(/C=C/c2ccnc3ccccc23)cc1,.,/,/,/,/,/
COC(=O)c1[nH]c2ccc(C)cc2c1NC(=O)CCN1CCN(Cc2ccc3c(c2)OCO3)CC1,20µM,.[1.84 µM],.,.,.,.
CCOC(=O)c1[nH]c2ccccc2c1NC(=O)NC(C)C,/,.,.,.,.,.
CCOC(=O)C1CCCN(CC(=O)Nc2c(C(=O)OC)[nH]c3ccc(Cl)cc23)C1 (stereo not drawn),.,.,.,.,.,.
CCOC(=O)C1CCCN(CC(=O)Nc2c(C(=O)OC)[nH]c3ccc(C)cc23)C1 (stereo not drawn),32µM,.,.,.,.,.
CCOC(=O)c1[nH]c2ccc(OC)cc2c1NC(=O)OC,28µM,.,.,.,.,.
CCOC(=O)c1[nH]c2ccc(OC)cc2c1NC(=O)NC(C)C,18µM,.,/,.,.,.
Cc1nn(C(=O)c2c(F)cccc2F)c(C)c1S(=O)(=O)N1CCCCCC1,.,.,/,.,.,/
CC(=O)c1cccc(NS(=O)(=O)c2cccc(S(=O)(=O)c3ccc(Br)cc3)c2)c1,.,.,?,.,.,/
Cc1cccc(C(C)C)c1NC(=O)C1CCCN1S(=O)(=O)c1cccc2nsnc12 (stereo not drawn),.,.,?,.,.,/
CCOC(=O)c1[nH]c2ccc(OC)cc2c1NC(=O)CCN1CCCC(C)C1 (stereo not drawn),32µM,.,/,.,.,.
CCOC(=O)N1CCN(c2ccc(S(=O)(=O)N3CCC(C)CC3)cc2[N+](=O)[O-])CC1,.,.,18µM,.,/,.
CC(=O)N1CCN(c2ccc(S(=O)(=O)N3CCOCC3)cc2[N+](=O)[O-])CC1,/,.,.,.,/,.
COc1ccc(-c2noc(Cn3c(=O)c4ccccc4n(CC(=O)Nc4cccc(OC)c4)c3=O)n2)cc1,.,.,.,.,.,/
CN(C)c1ccc(/C=C/c2ccc3ccccc3[n+]2C)cc1,.,23µM,15µM,.,?,.
